The entries are a selection whose mix differs from that of the whole data set. The source made the active and inactive calls. No stated cut-off is given here; in the data, active means inhibition above about 12%; inconclusive means no clear call, values can overlap the other calls; inactive means below about 7.3%.

Sequences of proteins named here, by UniProt entry; tags and fusion partners are left off.
UniProt Q14145, whole entry: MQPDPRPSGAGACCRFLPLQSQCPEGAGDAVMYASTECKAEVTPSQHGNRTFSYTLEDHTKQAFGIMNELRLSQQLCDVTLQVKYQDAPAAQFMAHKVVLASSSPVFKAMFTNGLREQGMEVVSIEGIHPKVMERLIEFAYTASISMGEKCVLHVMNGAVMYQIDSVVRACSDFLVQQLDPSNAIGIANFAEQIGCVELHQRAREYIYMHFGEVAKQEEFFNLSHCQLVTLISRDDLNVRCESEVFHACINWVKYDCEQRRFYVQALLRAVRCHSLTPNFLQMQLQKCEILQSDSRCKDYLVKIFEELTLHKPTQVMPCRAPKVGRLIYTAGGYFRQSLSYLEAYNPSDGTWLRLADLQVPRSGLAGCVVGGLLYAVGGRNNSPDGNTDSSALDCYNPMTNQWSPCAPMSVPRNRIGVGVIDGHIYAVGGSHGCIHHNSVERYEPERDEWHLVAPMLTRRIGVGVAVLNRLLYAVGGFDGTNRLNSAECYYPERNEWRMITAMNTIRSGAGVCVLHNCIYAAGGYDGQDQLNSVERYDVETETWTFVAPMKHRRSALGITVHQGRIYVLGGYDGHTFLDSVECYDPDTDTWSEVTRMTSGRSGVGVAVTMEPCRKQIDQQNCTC
UniProt Q16236, whole entry partner: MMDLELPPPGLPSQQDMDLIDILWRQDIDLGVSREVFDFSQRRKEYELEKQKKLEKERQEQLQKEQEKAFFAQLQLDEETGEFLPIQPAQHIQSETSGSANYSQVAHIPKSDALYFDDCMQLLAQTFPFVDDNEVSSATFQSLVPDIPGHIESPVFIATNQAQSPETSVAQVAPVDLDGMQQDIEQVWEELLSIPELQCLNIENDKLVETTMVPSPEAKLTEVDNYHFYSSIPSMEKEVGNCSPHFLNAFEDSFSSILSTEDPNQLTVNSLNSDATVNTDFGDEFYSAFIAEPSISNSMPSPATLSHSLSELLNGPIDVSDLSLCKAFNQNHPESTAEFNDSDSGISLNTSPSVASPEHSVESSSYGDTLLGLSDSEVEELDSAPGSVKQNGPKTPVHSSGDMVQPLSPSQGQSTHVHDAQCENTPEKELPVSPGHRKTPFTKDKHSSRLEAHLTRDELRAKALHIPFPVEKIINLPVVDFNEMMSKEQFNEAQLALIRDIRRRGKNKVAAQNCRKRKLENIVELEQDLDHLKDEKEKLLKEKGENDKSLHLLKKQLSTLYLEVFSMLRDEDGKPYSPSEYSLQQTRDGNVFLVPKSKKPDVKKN

This assay has as its target Kelch-like ECH-associated protein 1 (Homo sapiens) (UniProt Q14145). Nature of the assay: Keap1-Nrf2 protein-protein interaction inhibitors, primary screen, biochemical, fluorescence polarization, single point (AID 504523).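 Further: human Keap1 Kelch domain with fluorescein labeled Nrf2 9mer peptide probe; 0% = neutral control wells and 100% = peptide positive control; higher means more block of Keap1 binding to Nrf2 peptide.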 As to conditions: Keap1 Kelch-Nrf2 peptide fluorescence polarization, 1536-well; at 9.4 µM; hits give high values.
Regarding `CCC(=O)N(c1ccccc1)C1(COC)CCN(CCn2nnn(CC)c2=O)CC1`, the inhibition was inactive: -0.17%.

For `CCC(=O)N(c1ccccc1)C1(COC)CCN(CCc2cccs2)CC1`, the inhibition was inactive: -0.242%.

For orientation: inhibition means the relative decrease from the control value, in per cent.

The values are drawn from PubChem BioAssay AID504523 (Broad Institute, 2011).
